The record followed here is patent publication US9707269B2, “Sugar compositions for treating hemophilia A and/or von Willebrand disease” (CSL Behring GmbH, priority 2012, dated 2017).

Test [1] has as its target T1, rhASGPR (Homo sapiens, UniProt P07306).
T1 construct: The extracellular domains of receptor proteins were acquired from R&D Systems (Wiesbaden, Germany); purchased R&D Systems (Wiesbaden, Germany)
T1 sequence (P07306 62-291 limits assumed): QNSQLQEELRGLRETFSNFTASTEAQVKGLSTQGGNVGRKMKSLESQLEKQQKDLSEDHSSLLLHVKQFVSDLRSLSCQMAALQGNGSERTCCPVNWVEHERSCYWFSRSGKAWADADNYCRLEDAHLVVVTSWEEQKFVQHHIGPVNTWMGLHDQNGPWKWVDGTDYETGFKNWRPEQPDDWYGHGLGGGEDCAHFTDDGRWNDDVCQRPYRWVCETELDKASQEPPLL
Kind of test: SPR binding to immobilized clearance receptor rhASGPR. The settings on record: 25 °C, 5 mM CaCl2, pH 7.4, FIGS. 9 and 10. On the procedure: (§1) SPR technology (Biacore T200, GE Healthcare Biosciences, Uppsala, Sweden) was applied to evaluate mechanisms of realtime biomolecular interactions between VWF, receptor-blocking agents and clearance receptor candidates. The interaction experiments were performed at a flow cell temperature of +25° C. by applying running buffer containing 10 mM HEPES, 150 mM NaCl, 5 mM CaCl2 and 0.05% Tween-20 at pH 7.4, which was also used as sample dilution buffer. Reagents and buffer stock solutions were purchased from GE Healthcare Biosciences (Uppsala, Sweden). The extracellular domains of receptor proteins were acquired from R&D Systems (Wiesbaden, Germany). […]
(§2) Kinetic data were analyzed using Biacore T200 Evaluation Software Version 1.0 (GE Healthcare Biosciences, Uppsala, Sweden). An interaction of the analyte with the ligand was detected by an increase in accumulating mass and specific binding was identified by subtracting the binding response recorded from the control surface, followed by subtracting an average of the buffer blank injections. A report point was positioned 20 seconds after the end of sample injection and was evaluated as representative for a stable protein-ligand interaction, which was of interest. […] Furthermore, the response was calculated relative to the baseline in each case.
(Surface plasmon resonance follows binding to a sensor surface in real time, without labels.)

Test [2] addresses T1, rhASGPR. Kind of test: SPR inhibition of ASF binding to rhASGPR by monosaccharides. On the procedure:
as §1
as §2, with “case. […]” for “case.”

In the case of “asialofetuin: bovine ASF (fetuin after the removal of terminal sialic acid residues), ligand blocking galactose receptors such as ASGPR”, the “SPR binding to rhASGPR” value in test [1] is on record as “bind efficiently”. Besides, in test [2], the “binding of ASF to rhASGPR in the absence of Ca2+” value is on record as “inhibited”.
